The text below walks through data of US10105313B2, “Uses of rose pigment compounds” (SUNTORY HOLDINGS LIMITED, priority 2014, dated 2018).

Amino acid sequences for entries named in this document (tags omitted). Residues count along the entry.
UniProt P00772, 27-266: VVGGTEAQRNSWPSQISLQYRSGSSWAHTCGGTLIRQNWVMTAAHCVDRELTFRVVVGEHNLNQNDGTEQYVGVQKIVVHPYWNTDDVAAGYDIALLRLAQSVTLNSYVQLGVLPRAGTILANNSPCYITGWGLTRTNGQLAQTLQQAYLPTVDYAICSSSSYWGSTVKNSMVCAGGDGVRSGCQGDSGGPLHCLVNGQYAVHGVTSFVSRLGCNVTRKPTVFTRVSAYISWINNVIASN

The test has as its target T1, elastase (Sus scrofa, UniProt P00772).
T1 construct: purchased Sigma
The test can be described thus: Elastase inhibition test. As to conditions: test concentration 80 μg/mL. Format: biochemical. The protocol: The blue rose petal extract, fractions thereof as products of treatment on a column (60% acetonitrile fractions), rosadelphin A1, rosacyanin A1, and tellimagrandin 1 were subjected to an elastase inhibition test that was performed by the following method.
An enzyme solution was prepared by dissolving 0.1 ml of elastase (product of Sigma) in 0.2 M Tris buffer at pH 8.0 (hereinafter referred to as a Tris buffer) to give a concentration of 0.05 units/mL and diluted 100 folds just before use. A substrate solution was prepared by dissolving N-Succinyl-Ala-Ala-Ala-p-nitroanilide (product of Sigma) in a Tris buffer to give a concentration of 4 mM. To a 96-well plate, 50 μL of a solution of each sample dissolved in 10% DMSO and 50 μL of the enzyme solution were added and after mixing them with a plate shaker, the resulting mixture was preheated at 25° C. for 10 minutes. Subsequently, 100 μL of the substrate solution was added and after mixing with a plate shaker, reaction was carried out at 25° C. for 30 minutes and immediately thereafter, the liberation of p-nitroaniline was assayed by measuring the absorbance at a wavelength of 405 nm (hereinafter designated as A405). […] The inhibitory activity of each sample was calculated in terms of the percent inhibition determined by the following formula: Percent elastase inhibition (%)=[(f−e)−{(b−a)−(d−c)}]/(f−e)×100 […]

Consider `O=S(=O)(F)Cc1ccccc1` [PMSF, phenylmethanesulfonyl fluoride, reference compound], for which the “Percent elastase inhibition (%)” value (Table 7) is “* Percent inhibition by 80 μg/mL PMSF: 94.1%” and the “Percent elastase inhibition (%)” value (Table 8) is “* Percent inhibition by 80 μg/mL PMSF: 79.5%”.
